Measured values published in PubChem BioAssay AID720 (The Scripps Research Institute Molecular Screening Center, 2007).
Only a part is listed here, and it is no random draw. Some tests of the compounds listed are not included; inactive here does not mean inactive elsewhere. Activity calls are given as the source filed them.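 The calls were made as follows: active = inhibition above the screen-wide mean inhibition plus 3 SD (cut at about 15% in these data); inactive = the rest.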

Sequences of proteins named here, by UniProt entry; tags and fusion partners are left off.
UniProt P54760, whole entry: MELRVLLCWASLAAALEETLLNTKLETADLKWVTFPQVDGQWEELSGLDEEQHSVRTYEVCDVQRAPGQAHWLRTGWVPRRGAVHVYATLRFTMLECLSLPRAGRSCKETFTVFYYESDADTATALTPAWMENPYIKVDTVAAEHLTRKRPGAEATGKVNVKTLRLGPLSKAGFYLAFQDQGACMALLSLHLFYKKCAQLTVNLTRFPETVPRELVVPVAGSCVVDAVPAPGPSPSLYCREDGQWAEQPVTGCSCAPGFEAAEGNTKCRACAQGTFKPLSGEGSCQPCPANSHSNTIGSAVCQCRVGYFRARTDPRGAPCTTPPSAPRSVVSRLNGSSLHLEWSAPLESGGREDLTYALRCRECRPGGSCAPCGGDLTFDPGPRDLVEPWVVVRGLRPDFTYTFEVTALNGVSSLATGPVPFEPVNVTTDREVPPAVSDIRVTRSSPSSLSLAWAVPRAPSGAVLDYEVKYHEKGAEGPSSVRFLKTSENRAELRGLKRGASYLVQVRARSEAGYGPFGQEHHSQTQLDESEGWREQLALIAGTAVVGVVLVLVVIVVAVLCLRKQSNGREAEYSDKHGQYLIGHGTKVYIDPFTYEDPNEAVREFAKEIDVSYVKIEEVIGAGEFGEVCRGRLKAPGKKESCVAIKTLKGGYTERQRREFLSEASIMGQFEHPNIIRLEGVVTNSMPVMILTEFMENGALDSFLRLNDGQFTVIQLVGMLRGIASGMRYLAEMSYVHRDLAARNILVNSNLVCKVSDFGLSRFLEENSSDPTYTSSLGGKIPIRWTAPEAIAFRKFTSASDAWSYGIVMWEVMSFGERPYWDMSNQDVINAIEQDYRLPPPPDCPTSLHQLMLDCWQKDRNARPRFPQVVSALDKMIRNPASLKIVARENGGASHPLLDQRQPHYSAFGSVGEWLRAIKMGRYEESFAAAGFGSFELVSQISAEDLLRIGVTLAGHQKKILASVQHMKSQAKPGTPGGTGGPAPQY

Target: Ephrin type-B receptor 4 (Homo sapiens) (UniProt P54760)
Experiment: EphB4-ephrin-B2 interaction antagonists, primary screen, biochemical, TNYL-RAW peptide probe, fluorescence polarization (AID 720);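 also: 0% = DMSO wells and 100% = excess unlabeled TNYL-RAW peptide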
Details: EphB4 LBD / TNYL-RAW-Alexa532 peptide, at 7 µM, active compounds read high

| Structure (SMILES) | inhibition |
| --- | --- |
| O=C(OC1CN2CCC1CC2)C(CO)(c1ccccc1)c1ccccc1 (stereo not drawn) | inactive: -4.24% |
| CN(C)c1cccc(C(=O)NCC2(N(C)C)CCCCC2)c1 | inactive: -1.72% |
| CC(C)N1C(=O)CC2(CCN(CCOC(=O)C(O)(c3ccccc3)c3ccccc3)CC2)C1=O | inactive: -0.47% |
